For the test, the target named is human AMPK (full-length γ1, β1 and α1 subunits) (Homo sapiens (Human), UniProt Q13131+Q9Y478). Description: AMPK in vitro biochemical assay (33P-based, SAMS peptide, PP2A dephosphorylation).

Protein sequences, listed by entry. Tags and fused reporters are not part of them.
UniProt Q13131, whole entry: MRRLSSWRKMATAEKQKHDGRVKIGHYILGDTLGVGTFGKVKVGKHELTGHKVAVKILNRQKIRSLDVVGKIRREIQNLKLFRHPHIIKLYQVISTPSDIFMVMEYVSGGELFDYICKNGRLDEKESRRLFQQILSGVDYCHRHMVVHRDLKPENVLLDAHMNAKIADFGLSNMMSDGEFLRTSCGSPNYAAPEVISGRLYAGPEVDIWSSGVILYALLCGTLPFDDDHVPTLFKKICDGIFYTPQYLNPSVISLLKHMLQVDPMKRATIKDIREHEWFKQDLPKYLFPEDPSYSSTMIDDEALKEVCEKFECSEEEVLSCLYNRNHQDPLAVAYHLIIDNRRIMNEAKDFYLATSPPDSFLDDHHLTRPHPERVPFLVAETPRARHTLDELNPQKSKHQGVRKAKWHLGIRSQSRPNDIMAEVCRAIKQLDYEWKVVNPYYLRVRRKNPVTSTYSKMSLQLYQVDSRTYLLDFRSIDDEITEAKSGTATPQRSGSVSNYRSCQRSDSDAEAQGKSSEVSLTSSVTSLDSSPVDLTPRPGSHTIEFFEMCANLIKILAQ
UniProt Q9Y478, whole entry: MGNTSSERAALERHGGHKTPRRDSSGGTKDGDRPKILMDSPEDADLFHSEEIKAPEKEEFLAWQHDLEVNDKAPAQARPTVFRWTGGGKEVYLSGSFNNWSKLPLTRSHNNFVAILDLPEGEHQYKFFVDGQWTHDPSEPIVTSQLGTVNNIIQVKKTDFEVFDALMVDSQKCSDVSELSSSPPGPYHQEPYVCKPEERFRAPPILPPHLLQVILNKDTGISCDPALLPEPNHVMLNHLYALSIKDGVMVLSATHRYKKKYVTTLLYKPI
UniProt P54619, whole entry partner: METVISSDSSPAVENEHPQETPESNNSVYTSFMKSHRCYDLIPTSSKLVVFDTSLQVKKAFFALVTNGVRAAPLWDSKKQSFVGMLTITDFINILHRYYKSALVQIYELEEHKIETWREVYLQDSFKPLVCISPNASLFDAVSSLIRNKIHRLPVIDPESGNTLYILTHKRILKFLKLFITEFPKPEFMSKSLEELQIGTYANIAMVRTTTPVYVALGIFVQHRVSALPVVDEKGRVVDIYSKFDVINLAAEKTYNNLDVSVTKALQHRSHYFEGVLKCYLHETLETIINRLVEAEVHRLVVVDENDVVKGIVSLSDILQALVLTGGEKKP

A word on the EC50: it is the concentration at which the effect is half-maximal. A lower EC50 goes with greater potency.

For the compound `COc1cc(-c2cc3c(C(=O)O)c[nH]c3cc2Cl)ccc1C(C)(C)CO`, the EC50 (activation of phosphorylated AMPK, 33P-ATP, SAMS peptide, PP2A treatment, 4-parameter fit) came to 26.9 nM. The Maximum (counts as % of positive control wells (enzyme, allosteric activator or AMP, PP2A and substrate)) is reported as 98%.

The values above are taken from patent US9394285B2 (Pfizer Inc., priority 2013, dated 2016).
